# scFv variants of Ab-14 (heavy chain) against a SARS-CoV-2 spike peptide

Target peptide (SARS-CoV-2 spike, HR2 region): PDVDLGDISGINAS

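AAYL49 was designed without a model: most single CDR substitutions and a random sample of double and triple ones. The scFvs were displayed on barcoded MATa yeast, the peptide on MATalpha yeast. The frequency of each diploid, read from paired DNA barcodes, reflects how well the two displayed proteins bind. Scores were corrected for input abundance and mapped to Kd with protein pairs of known affinity run in the same pool. There are three technical replicates.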

Parent: Ab-14, a human scFv built as VH, a 15-residue (Gly4Ser)3 linker, VL. Only the CDRs of the heavy chain vary.
VH: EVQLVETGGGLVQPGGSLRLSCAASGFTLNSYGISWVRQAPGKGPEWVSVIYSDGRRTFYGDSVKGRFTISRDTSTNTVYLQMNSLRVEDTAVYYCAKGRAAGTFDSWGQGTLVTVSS
VL: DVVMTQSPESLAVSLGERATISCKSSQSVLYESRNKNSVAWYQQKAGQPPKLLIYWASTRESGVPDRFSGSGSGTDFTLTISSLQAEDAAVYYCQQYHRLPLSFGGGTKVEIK

The whole VH of each variant is written out.
Affinities are written as log10 Kd with Kd in nM; a lower number is a better binder.
Replicates are averaged; those with no signal do not enter the mean.
"no signal" marks a missing value. The strain was present, yet no cells mated with the target were sequenced in any replicate, which points to weak or no binding.
As a blank, each scFv also met three strains without target: over library AAYL49, 15% of these pairings were detected, typically at 4.06 and seldom below 2.83. Also given: how often the same scFv was detected with the empty control strains.
In this assay the parent's reference entry averaged 0.65; its copy inside this library read 4.11 (one replicate of three).

VH,mean log10 Kd (nM),seen in,control signals
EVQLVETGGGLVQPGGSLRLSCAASGFTLNSYGISWVRQAPGKGPEWVSVIYSDGRRTFYGDRVIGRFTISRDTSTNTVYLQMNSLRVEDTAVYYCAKKRAAGTFDSWGQGTLVTVSS,3.53,2/3,0/9
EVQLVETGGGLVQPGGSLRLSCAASGFTLNSYGMSWVRQAPGKGPEWVSVIYSWGRRTFYGDMVKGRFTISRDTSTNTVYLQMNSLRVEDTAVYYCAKGRAAGTFDSWGQGTLVTVSS,no signal,0/3,0/9
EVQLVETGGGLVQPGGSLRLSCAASGFTLNSYGISWVRQAPGKGPEWVSVIYSDGRRTFYGDSVKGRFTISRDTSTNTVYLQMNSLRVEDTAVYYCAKWTAAGTFRSWGQGTLVTVSS,5.63,1/3,0/9
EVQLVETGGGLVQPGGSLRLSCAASGFTLNSYGISWVRQAPGKGPEWVSVIYSDEHRTFYGDSVKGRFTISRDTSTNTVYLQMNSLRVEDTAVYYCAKGRAAGTFDSWGQGTLVTVSS,no signal,0/3,0/9
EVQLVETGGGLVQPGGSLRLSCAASGFTLNSYGIFWVRQAPGKGPEWVSVLYSDGRRQFYGDSVKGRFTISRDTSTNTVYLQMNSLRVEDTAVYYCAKGRAAGTFDSWGQGTLVTVSS,no signal,0/3,1/9
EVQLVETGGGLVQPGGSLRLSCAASGFTLNSTGISWVRQAPGKGPEWVSVIYSDGRRRFAGDSVKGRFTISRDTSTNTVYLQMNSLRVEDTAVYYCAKGRAAGTFDSWGQGTLVTVSS,3.56,1/3,4/9
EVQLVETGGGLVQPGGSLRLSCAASGVTLNSYGISWVRQAPGKGPEWVSVIYSDGRRTFYGDSHKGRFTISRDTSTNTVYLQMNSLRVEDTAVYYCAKGRNAGTFDSWGQGTLVTVSS,5.32,1/3,5/9
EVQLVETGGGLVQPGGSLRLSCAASGFTLNSYGISWVRQAPGKGPEWVSVIYSDFMRTFYGDSVKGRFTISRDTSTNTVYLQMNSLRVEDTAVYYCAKGRPAGTFDSWGQGTLVTVSS,no signal,0/3,1/9
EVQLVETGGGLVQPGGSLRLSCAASGFTLNEYGISWVRQAPGKGPEWVSVISSDGRRTFYGHSVKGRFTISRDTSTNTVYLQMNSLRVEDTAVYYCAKGRAAGTFDSWGQGTLVTVSS,3.08,3/3,4/9

Further variants, results first:

mean log10 Kd (nM),seen in,control signals,VH
4.91,2/3,7/9,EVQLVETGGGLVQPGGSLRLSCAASGFTLNSYGISWVRQAPGKGPEWVSVIYSDGRRSFYGLSVKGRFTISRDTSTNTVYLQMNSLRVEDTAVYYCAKGRAAGTCDSWGQGTLVTVSS
no signal,0/3,0/9,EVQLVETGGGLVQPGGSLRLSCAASGQTLNSYGISWVRQAPGKGPEWVSVIYSDGRRTFYGDSVKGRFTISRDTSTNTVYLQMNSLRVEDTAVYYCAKGHAATTFDSWGQGTLVTVSS
no signal,0/3,1/9,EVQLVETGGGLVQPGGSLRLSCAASGFTLPSYGISWVRQAPGKGPEWVSVQYSDGRRTFYWDSVKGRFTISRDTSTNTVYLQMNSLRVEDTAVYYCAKGRAAGTFDSWGQGTLVTVSS
no signal,0/3,3/9,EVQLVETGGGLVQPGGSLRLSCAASGFTLNSYGISWVRQAPGKGPEWVSVIYSTGRRTFNGDSVKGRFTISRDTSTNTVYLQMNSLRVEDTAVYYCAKGRAAGTFESWGQGTLVTVSS
no signal,0/3,0/9,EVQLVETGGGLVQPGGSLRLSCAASGFTLNSYGGWWVRQAPGKGPEWVSVIYSDGRRTFYGDSVKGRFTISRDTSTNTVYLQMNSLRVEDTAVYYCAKGRAAGTFDIWGQGTLVTVSS
3.36,1/3,1/9,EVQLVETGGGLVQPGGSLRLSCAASGFTLNSYGISWVRQAPGKGPEWVSHNYSDGRRTFYGDSKKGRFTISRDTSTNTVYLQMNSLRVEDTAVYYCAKGRAAGTFDSWGQGTLVTVSS
no signal,0/3,0/9,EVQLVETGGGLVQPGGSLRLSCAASGFTRNSYGISWVRQAPGKGPEWVSVIYSDGRRTFYGEIVKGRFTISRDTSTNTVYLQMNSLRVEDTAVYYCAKGRAAGTFDSWGQGTLVTVSS
no signal,0/3,1/9,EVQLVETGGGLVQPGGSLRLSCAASGFTWNSYGISWVRQAPGKGPEWVSVIYSDGRRTFYGASVKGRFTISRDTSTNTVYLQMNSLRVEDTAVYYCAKGRAAGTFDSWGQGTLVTVSS
no signal,0/3,1/9,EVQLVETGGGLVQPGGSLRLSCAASGFTLNSYGISWVRQAPGKGPEWVSVIYSDGRRTKYGDCDKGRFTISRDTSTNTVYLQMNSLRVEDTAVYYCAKGRAAGTFDSWGQGTLVTVSS
1.40,3/3,2/9,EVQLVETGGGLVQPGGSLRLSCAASGFTLNSYGISWVRQAPGKGPEWVSVIYSDGNRTFYGDSFKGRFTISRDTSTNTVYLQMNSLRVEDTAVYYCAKWRAAGTFDSWGQGTLVTVSS

For reference, 2 entries of the list once more:

VH	mean log10 Kd (nM)	seen in	control signals
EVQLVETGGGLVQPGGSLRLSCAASGFTLNSYGGWWVRQAPGKGPEWVSVIYSDGRRTFYGDSVKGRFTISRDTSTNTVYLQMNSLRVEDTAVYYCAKGRAAGTFDIWGQGTLVTVSS	no signal	0/3	0/9
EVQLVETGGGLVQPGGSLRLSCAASGFTLNSTGISWVRQAPGKGPEWVSVIYSDGRRRFAGDSVKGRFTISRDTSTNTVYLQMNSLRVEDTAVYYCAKGRAAGTFDSWGQGTLVTVSS	3.56	1/3	4/9

Reference: Engelhart et al. 2022, doi:10.1038/s41597-022-01779-4. File: FLAb, binding data.